Key:
[1] = target: GPR139 (Homo sapiens, UniProt Q6DWJ6); assay: Fluo-4 calcium mobilization assay, agonist mode, concentration-response curves in CHO-GPR139 cells; settings: for EC50: GPR139; for pEC50 ± SEM: GPR139, values printed with a minus sign; for Emax ± SEM: efficacy normalized to compound 1a
[2] = Solubility remark in the Note column of Supplementary Table S2; settings: polar solvents
[3] = target: muscarinic acetylcholine receptor M1 (Homo sapiens, UniProt P11229); assay: Calcium mobilization counter-screen in CHO-M1 cells; assay type: cell-based; settings: concentration from which the calcium response is nonspecific
Protocol: All compounds were tested on a CHO-k1 cell line stably expressing GPR139 (CHO-GPR139)[11] kindly provided by H. Lundbeck A/S, Denmark. GPR139-specific responses were assessed using a CHO-k1 cell line stably expressing the muscarinic acetylcholine receptor M1 (CHO-M1) (The Missouri S&T cDNA Resource Center, # CEM100TN00). The CHO-GPR139 cells were grown in Dulbecco’s modified Eagle’s medium (DMEM) F12-Kaighn’s (ThermoFisher Scientific # 21127) supplemented with 10% dialyzed fetal bovine serum (United States origin; ThermoFisher Scientific # 26400), 1% GlutaMAX-I (100X) (ThermoFisher Scientific # 35050061), and 100 units/mL penicillin and 100 µg/mL streptomycin (ThermoFisher Scientific # 15140122) and 1 mg/mL geneticin (ThermoFisher Scientific # 11811031). The CHO-M1 cells were grown in Ham’s F12 (ThermoFisher Scientific # 21765) supplemented with 10% fetal bovine serum (South American origin; ThermoFisher Scientific # 10270) + 100 units/mL penicillin and streptomycin and 0.25 mg/mL geneticin.
The primary screening of 4,000 diverse screening compounds on GPR139, led us to identify 108 initial actives in GPR139-expressing cells. […] We excluded compounds that had (1) an effect on another simultaneously tested GPCR (data not shown), (2) reactive groups, or (3) poor predicted solubility. 52 of the active compounds were re-purchased for validation, which were tested at three concentrations (100, 50 and 25 μM) using the same methodology as in the screening campaign. Out of the 52 compounds, 13 compounds had no effect (excluded as false positives), 28 compounds elicited an equal response in GPR139 and muscarinic acetylcholine receptor M1 cells and were designated as not selective, and 11 compounds were identified as viable candidates (AC4, AC7, AC8, AC9, AC10, AC11, AC12, AC13, AC14, AC16, and AC37) (Supplementary Fig. S1). None of the 11 hits promoted calcium mobilization in the M1 receptor cells (data not shown). The 11 hits were then screened in pure agonist mode (i.e., without the presence of 1a) to evaluate if they were agonists or antagonists (Fig. 3 and Supplementary Table S1). All 11 hits were agonists.
When screening the compounds as antagonists they were pre-incubated for 10 min as in the HTS. 33 μL of 3.2 μM 1a on the CHO-GPR139 cells or 20 μM carbachol on the CHO-M1 cells were added automatically after baseline measurements.

Sequences of proteins named here, by UniProt entry; tags and fusion partners are left off.
UniProt Q6DWJ6, whole entry: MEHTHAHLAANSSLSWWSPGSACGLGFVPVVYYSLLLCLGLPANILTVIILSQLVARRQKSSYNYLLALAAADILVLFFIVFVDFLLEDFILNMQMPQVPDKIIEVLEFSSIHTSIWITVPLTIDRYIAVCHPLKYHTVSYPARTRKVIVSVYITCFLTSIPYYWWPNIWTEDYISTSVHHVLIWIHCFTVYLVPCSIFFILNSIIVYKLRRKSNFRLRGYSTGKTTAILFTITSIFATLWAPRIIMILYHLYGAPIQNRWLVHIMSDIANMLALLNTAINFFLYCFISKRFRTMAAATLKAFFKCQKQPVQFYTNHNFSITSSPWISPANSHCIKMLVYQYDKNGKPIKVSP
UniProt P11229, whole entry: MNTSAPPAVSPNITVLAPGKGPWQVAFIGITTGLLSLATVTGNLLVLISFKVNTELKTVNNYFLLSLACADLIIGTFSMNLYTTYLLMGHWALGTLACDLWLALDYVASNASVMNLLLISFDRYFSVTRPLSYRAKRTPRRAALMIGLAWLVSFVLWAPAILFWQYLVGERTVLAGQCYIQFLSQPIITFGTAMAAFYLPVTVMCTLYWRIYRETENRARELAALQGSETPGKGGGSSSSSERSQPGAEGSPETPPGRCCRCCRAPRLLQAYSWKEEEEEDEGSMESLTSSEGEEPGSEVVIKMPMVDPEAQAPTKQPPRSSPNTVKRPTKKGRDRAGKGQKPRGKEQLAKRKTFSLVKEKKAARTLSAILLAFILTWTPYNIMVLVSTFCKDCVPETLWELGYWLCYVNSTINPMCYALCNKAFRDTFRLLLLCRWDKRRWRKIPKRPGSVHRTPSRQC

SMILES: Cc1ccc(CNC(=O)NCCCOCC2CC2)cc1F
- EC50 [1]: 1320 nM
- pEC50 ± SEM [1]: -5.88
- Emax ± SEM [1]: 109%

SMILES: CC1(c2ccc3c(c2)OCCO3)NC(=O)N(CC(=O)c2ccc3c(c2)CCN3S(C)(=O)=O)C1=O (stereo not drawn)
- EC50 [1]: 4230 nM
- pEC50 ± SEM [1]: -5.37
- Emax ± SEM [1]: 97%

SMILES: CC1(c2cccc3ccccc23)NC(=O)N(CC(=O)N2CCCc3ccccc32)C1=O (stereo not drawn)
- EC50 [1]: 1870 nM
- pEC50 ± SEM [1]: -5.73
- Emax ± SEM [1]: 56%

SMILES: CN(C)C(=O)CN1C(=O)NC(C)(c2ccc3c(c2)OCO3)C1=O (stereo not drawn)
- EC50 [1]: 6530 nM
- pEC50 ± SEM [1]: -5.19
- Emax ± SEM [1]: 101%

SMILES: CC1(c2cccc3ccccc23)NC(=O)N(CC(=O)c2ccc[nH]2)C1=O (stereo not drawn)
- EC50 [1]: 1060 nM
- pEC50 ± SEM [1]: -5.98
- Emax ± SEM [1]: 63%

SMILES: Cc1ccc(C2(C)NC(=O)N(Cc3cn4cc(Cl)ccc4n3)C2=O)cc1 (single isomer, unassigned)
- Note: solubility [2]: Poor solubility in polar solvents
- pEC50 ± SEM [1]: -5.55

SMILES: CC(C)OCCCNC(=O)N[C@@H](C)c1cccc(Cl)c1
- pEC50 ± SEM [1]: -6.03
- Emax ± SEM [1]: 97%

SMILES: CC(C)COCCCNC(=O)N[C@@H](C)c1ccc(Br)cc1
- pEC50 ± SEM [1]: -6.54
- Emax ± SEM [1]: 102%

SMILES: O=C(NCCCOC1CCCCC1)NCc1ccc(Cl)cc1
- EC50 [1]: 16100 nM
- pEC50 ± SEM [1]: -4.79
- Emax ± SEM [1]: 75%

SMILES: CC(C)CCNC(=O)CNC(=O)NCc1ccc(F)cc1
- EC50 [1]: 14100 nM
- pEC50 ± SEM [1]: -4.85
- Emax ± SEM [1]: 87%

SMILES: CC1(c2ccc3c(c2)OCO3)NC(=O)N(Cc2cn3ccccc3n2)C1=O (stereo not drawn)
- EC50 [1]: 1900 nM
- pEC50 ± SEM [1]: -5.72
- Emax ± SEM [1]: 106%

SMILES: CC1(c2ccc3c(c2)OCO3)NC(=O)N(CC(=O)c2c[nH]c(C(=O)N3CCCC3)c2)C1=O (stereo not drawn)
- EC50 [1]: 3180 nM
- pEC50 ± SEM [1]: -5.50
- Emax ± SEM [1]: 97%

SMILES: O=C(NCCCc1nc2ccccc2[nH]1)NC1CCSc2ccc(F)cc21 (single isomer, unassigned)
- pEC50 ± SEM [1]: -6.11

SMILES: C=CCN(CC=C)C(=O)CN1C(=O)NC(C)(c2ccc3c(c2)OCO3)C1=O (single isomer, unassigned)
- pEC50 ± SEM [1]: -6.41

SMILES: COCCn1c(C)cc(C(=O)CN2C(=O)NC(C)(c3cccc4ccccc34)C2=O)c1C (stereo not drawn)
- EC50 [1]: 1850 nM
- pEC50 ± SEM [1]: -5.73
- Emax ± SEM [1]: 94%

SMILES: CC1(c2ccc3c(c2)OCO3)NC(=O)N(CC(=O)c2ccccc2)C1=O (stereo not drawn)
- EC50 [1]: 2140 nM
- pEC50 ± SEM [1]: -5.67
- Emax ± SEM [1]: 94%
- Note: Nonspecific ≥ concentration [3]: Nonspecific ≥ 10 μM

SMILES: CC(=O)Nc1ccc(C(=O)CN2C(=O)N[C@](C)(c3ccc4c(c3)OCCO4)C2=O)c(F)c1
- EC50 [1]: 10200 nM
- pEC50 ± SEM [1]: -4.99
- Emax ± SEM [1]: 99%

SMILES: COc1ccc(C(NC(=O)NCC2CCCO2)C(F)(F)F)cc1 (stereo not drawn)
- EC50 [1]: 11400 nM
- pEC50 ± SEM [1]: -4.95
- Emax ± SEM [1]: 98%

SMILES: CCCC(=O)Nc1ccc(C(=O)CN2C(=O)N[C@](C)(c3ccc4c(c3)OCO4)C2=O)cc1
- EC50 [1]: 21700 nM
- pEC50 ± SEM [1]: -4.66
- Emax ± SEM [1]: 113%

SMILES: CC1(c2ccc3c(c2)OCO3)NC(=O)N(CC(=O)c2ccc3c(c2)CCC3)C1=O (stereo not drawn)
- EC50 [1]: 1000 nM
- pEC50 ± SEM [1]: -6.00
- Emax ± SEM [1]: 65%

SMILES: Cc1ccc(C)c(C(=O)CN2C(=O)NC(C)(c3ccc4c(c3)OCCO4)C2=O)c1 (stereo not drawn)
- EC50 [1]: 1190 nM
- pEC50 ± SEM [1]: -5.93
- Emax ± SEM [1]: 102%
- Note: Nonspecific ≥ concentration [3]: Nonspecific ≥ 30 μM

SMILES: CCOc1ccc(C(C)NC(=O)NCCCOCC(C)C)cc1 (stereo not drawn)
- EC50 [1]: 8070 nM
- pEC50 ± SEM [1]: -5.09
- Emax ± SEM [1]: 92%

SMILES: O=C(CN1C(=O)NC2(CCCc3ccccc32)C1=O)c1ccccc1 (stereo not drawn)
- EC50 [1]: 6400 nM
- pEC50 ± SEM [1]: -5.19
- Emax ± SEM [1]: 82%

SMILES: CC(C)(C)C(=O)CN1C(=O)NC(C)(c2ccc3c(c2)OCCO3)C1=O (stereo not drawn)
- EC50 [1]: 3560 nM
- pEC50 ± SEM [1]: -5.45
- Emax ± SEM [1]: 107%

SMILES: CC(C)CCNC(=O)CN1C(=O)NC(C)(c2ccc3c(c2)OCO3)C1=O (stereo not drawn)
- EC50 [1]: 1160 nM
- pEC50 ± SEM [1]: -5.94
- Emax ± SEM [1]: 98%

SMILES: O=C1NC2(CCc3ccccc32)C(=O)N1Cc1cn2ccccc2n1 (stereo not drawn)
- EC50 [1]: 12100 nM
- pEC50 ± SEM [1]: -4.92
- Emax ± SEM [1]: 101%

SMILES: Cc1ccc2nc(CN3C(=O)N[C@](C)(c4ccc5c(c4)OCO5)C3=O)cn2c1
- EC50 [1]: 14400 nM
- pEC50 ± SEM [1]: -4.84
- Emax ± SEM [1]: 103%

SMILES: CC(C)CN1CCOC(CNC(=O)NCc2ccc(Cl)s2)C1 (stereo not drawn)
- EC50 [1]: 14800 nM
- pEC50 ± SEM [1]: -4.83
- Emax ± SEM [1]: 89%

SMILES: Cc1ccc(C(C)NC(=O)NCCCNC(=O)C(C)C)cc1F (stereo not drawn)
- EC50 [1]: 1990 nM
- pEC50 ± SEM [1]: -5.70
- Emax ± SEM [1]: 97%

SMILES: CC1(c2ccc3c(c2)OCO3)NC(=O)N(CC(=O)c2ccc3c(c2)OCO3)C1=O (stereo not drawn)
- EC50 [1]: 2080 nM
- pEC50 ± SEM [1]: -5.68
- Emax ± SEM [1]: 114%
- Note: Nonspecific ≥ concentration [3]: Nonspecific ≥ 30 μM

SMILES: CC(C)OCCCNC(=O)NC(C)c1ccc(F)c(F)c1 (stereo not drawn)
- EC50 [1]: 1310 nM
- pEC50 ± SEM [1]: -5.88
- Emax ± SEM [1]: 101%

SMILES: CC1(c2cccc3ccccc23)NC(=O)N(CC(=O)N2CC(=O)Nc3ccccc32)C1=O (stereo not drawn)
- EC50 [1]: 1910 nM
- pEC50 ± SEM [1]: -5.72
- Emax ± SEM [1]: 84%

SMILES: CC1(c2ccc3c(c2)OCCO3)NC(=O)N(CC(=O)c2ccccc2F)C1=O (stereo not drawn)
- EC50 [1]: 1220 nM
- pEC50 ± SEM [1]: -5.92
- Emax ± SEM [1]: 99%
- Note: Nonspecific ≥ concentration [3]: Nonspecific ≥ 30 μM

SMILES: CC1(c2ccc3c(c2)OCCO3)NC(=O)N(CC(=O)c2ccc(S(C)(=O)=O)cc2)C1=O (stereo not drawn)
- EC50 [1]: 1850 nM
- pEC50 ± SEM [1]: -5.73
- Emax ± SEM [1]: 97%

SMILES: COc1ccc([C@@]2(C)NC(=O)N(Cc3cn4cc(Cl)ccc4n3)C2=O)cc1
- EC50 [1]: 24000 nM
- pEC50 ± SEM [1]: -4.62
- Emax ± SEM [1]: 95%

SMILES: O=C1NC2(CCCc3ccccc32)C(=O)N1Cc1cn2ccccc2n1 (stereo not drawn)
- EC50 [1]: 2080 nM
- pEC50 ± SEM [1]: -5.68
- Emax ± SEM [1]: 102%

SMILES: O=C(CN1C(=O)NC2(CCCc3ccccc32)C1=O)c1ccc(N2CCCC2=O)cc1 (stereo not drawn)
- EC50 [1]: 9770 nM
- pEC50 ± SEM [1]: -5.01
- Emax ± SEM [1]: 77%

SMILES: CC(C)CNC(=O)CNC(=O)NC(C)c1ccc(OC(F)F)cc1 (stereo not drawn)
- EC50 [1]: 1440 nM
- pEC50 ± SEM [1]: -5.84
- Emax ± SEM [1]: 105%

SMILES: CCC1(c2ccc(OC)cc2)NC(=O)N(CC(=O)c2ccc3c(c2)OCO3)C1=O (stereo not drawn)
- EC50 [1]: 1630 nM
- pEC50 ± SEM [1]: -5.79
- Emax ± SEM [1]: 114%
- Note: Nonspecific ≥ concentration [3]: Nonspecific ≥ 10 μM

SMILES: CC(NC(=O)CN1C(=O)NC(C)(c2ccc3c(c2)OCO3)C1=O)C1CC1 (stereo not drawn)
- EC50 [1]: 1880 nM
- pEC50 ± SEM [1]: -5.73
- Emax ± SEM [1]: 103%

SMILES: CC(C)OCCCNC(=O)NC(C)c1ccc2c(c1)OCO2 (single isomer, unassigned)
- pEC50 ± SEM [1]: -5.43

SMILES: O=C(CN1C(=O)NC2(CCCc3ccccc32)C1=O)c1ccc2c(c1)OCO2 (stereo not drawn)
- EC50 [1]: 2060 nM
- pEC50 ± SEM [1]: -5.69
- Emax ± SEM [1]: 94%

SMILES: CC1(C2CC2)NC(=O)N(CC(=O)N2CCCSc3ccccc32)C1=O (single isomer, unassigned)
- pEC50 ± SEM [1]: -5.15

SMILES: CC1(c2ccc3c(c2)OCO3)NC(=O)N(CC(=O)N2CCCC2)C1=O (stereo not drawn)
- EC50 [1]: 1300 nM
- pEC50 ± SEM [1]: -5.89
- Emax ± SEM [1]: 100%

SMILES: CC(C)OCCCNC(=O)N[C@@H](C)c1ccccc1Cl
- EC50 [1]: 600 nM
- pEC50 ± SEM [1]: -6.22
- Emax ± SEM [1]: 102%

SMILES: CC1(c2cccc3ccccc23)NC(=O)N(CCC(=O)NC2CCCCC2)C1=O (stereo not drawn)
- EC50 [1]: 3090 nM
- pEC50 ± SEM [1]: -5.51
- Emax ± SEM [1]: 66%

SMILES: CC(C)N(C(=O)CN1C(=O)NC(C)(c2cccc3ccccc23)C1=O)C(C)C (stereo not drawn)
- EC50 [1]: 2810 nM
- pEC50 ± SEM [1]: -5.55
- Emax ± SEM [1]: 77%

SMILES: CCOC(=O)c1c(C)[nH]c(C)c1C(=O)CN1C(=O)NC(C)(c2ccc3c(c2)OCO3)C1=O (stereo not drawn)
- EC50 [1]: 1460 nM
- pEC50 ± SEM [1]: -5.84
- Emax ± SEM [1]: 103%

Reference: publication PMC6405842, “Identification of a novel scaffold for a small molecule GPR139 receptor agonist” (Scientific Reports, 2019)
